Measurements published in patent US12409161B2, “Compound for treating neurodegenerative disorders” (FUDAN UNIVERSITY, priority 2019, dated 2025).

By UniProt entry, the sequences of proteins in these tests, tags left out. Where a name states a change or a piece, a line headed by the entry shows the natural chain unless it says otherwise. Chains listed by the source or under a name are the forms on record and can include a tag or linker.
UniProt P42858, with tags, fused parts or gaps, stated change not applied: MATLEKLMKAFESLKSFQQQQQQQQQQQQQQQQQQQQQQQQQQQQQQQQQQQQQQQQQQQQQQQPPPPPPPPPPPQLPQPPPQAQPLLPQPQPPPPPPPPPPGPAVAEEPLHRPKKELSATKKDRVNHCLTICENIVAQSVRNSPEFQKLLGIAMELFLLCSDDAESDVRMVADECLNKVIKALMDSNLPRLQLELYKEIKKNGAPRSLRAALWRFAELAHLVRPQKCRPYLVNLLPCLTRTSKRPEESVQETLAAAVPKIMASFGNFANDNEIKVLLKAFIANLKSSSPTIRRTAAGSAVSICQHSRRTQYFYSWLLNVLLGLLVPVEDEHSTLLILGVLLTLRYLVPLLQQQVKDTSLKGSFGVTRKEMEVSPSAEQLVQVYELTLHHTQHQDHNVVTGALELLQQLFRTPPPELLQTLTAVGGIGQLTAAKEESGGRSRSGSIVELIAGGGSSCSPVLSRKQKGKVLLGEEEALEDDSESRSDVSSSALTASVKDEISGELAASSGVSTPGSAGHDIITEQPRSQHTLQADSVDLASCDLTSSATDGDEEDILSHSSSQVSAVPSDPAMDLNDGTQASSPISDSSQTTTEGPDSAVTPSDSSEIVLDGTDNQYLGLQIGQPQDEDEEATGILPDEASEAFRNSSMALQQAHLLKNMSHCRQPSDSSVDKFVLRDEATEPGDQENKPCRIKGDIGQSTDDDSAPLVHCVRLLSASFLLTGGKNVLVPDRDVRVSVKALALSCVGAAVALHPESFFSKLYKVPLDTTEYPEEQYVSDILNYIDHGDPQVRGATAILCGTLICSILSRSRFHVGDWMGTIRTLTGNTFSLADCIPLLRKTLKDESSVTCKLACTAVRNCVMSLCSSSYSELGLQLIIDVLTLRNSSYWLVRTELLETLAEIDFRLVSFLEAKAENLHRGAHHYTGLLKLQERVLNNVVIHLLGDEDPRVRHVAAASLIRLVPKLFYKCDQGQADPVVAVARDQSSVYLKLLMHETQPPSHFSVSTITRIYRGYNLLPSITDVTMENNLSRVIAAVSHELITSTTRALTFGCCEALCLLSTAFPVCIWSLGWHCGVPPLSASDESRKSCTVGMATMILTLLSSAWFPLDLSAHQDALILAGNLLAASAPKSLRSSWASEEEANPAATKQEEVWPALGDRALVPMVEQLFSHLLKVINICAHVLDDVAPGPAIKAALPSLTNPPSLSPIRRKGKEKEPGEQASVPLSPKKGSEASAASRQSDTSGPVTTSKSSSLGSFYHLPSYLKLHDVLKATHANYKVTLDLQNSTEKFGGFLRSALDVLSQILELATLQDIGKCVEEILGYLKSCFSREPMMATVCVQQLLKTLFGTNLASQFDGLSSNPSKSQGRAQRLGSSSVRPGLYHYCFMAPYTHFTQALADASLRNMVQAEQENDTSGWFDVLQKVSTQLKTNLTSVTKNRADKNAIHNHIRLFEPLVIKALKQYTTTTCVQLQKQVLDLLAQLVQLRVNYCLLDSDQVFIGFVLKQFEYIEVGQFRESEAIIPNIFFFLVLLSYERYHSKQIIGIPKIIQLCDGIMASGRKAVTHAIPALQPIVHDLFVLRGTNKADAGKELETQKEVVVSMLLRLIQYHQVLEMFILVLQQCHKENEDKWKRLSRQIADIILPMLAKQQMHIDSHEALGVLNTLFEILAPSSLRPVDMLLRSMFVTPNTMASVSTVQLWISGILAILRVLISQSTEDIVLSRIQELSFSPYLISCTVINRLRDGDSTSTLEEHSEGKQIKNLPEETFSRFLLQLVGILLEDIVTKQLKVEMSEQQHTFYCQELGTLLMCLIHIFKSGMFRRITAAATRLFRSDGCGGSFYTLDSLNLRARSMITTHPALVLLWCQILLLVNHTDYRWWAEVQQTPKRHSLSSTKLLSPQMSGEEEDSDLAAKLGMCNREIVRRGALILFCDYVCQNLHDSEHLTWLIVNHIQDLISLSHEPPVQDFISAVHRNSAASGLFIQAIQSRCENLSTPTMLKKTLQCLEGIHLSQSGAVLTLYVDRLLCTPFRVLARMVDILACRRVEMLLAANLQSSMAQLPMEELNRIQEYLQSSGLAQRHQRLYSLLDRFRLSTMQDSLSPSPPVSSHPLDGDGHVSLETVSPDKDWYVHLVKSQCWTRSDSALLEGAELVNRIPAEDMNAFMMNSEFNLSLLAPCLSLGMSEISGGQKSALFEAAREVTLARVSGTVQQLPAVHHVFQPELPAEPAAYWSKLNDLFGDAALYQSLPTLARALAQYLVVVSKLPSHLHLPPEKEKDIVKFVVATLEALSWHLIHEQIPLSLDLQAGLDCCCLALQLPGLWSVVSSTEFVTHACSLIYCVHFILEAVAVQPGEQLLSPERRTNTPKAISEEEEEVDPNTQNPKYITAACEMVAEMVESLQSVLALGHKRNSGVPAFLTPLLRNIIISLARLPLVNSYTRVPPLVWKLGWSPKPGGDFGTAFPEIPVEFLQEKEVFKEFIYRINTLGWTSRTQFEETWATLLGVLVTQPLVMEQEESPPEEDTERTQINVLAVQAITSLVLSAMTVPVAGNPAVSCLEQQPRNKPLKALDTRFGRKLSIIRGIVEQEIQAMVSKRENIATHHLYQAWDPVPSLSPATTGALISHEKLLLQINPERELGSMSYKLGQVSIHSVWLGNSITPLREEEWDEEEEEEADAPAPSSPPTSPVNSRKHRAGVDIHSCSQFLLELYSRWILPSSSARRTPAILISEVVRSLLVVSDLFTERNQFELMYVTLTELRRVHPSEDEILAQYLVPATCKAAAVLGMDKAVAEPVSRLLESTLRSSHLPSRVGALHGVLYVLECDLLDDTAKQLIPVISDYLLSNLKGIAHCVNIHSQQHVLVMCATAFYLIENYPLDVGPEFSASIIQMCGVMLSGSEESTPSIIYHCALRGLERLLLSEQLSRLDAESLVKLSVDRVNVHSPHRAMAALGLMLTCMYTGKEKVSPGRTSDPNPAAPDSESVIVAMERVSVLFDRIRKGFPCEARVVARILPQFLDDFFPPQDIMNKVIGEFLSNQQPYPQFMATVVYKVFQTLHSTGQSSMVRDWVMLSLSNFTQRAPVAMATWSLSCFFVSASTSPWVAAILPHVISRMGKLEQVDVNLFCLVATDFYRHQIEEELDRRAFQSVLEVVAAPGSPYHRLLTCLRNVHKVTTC
UniProt P42859: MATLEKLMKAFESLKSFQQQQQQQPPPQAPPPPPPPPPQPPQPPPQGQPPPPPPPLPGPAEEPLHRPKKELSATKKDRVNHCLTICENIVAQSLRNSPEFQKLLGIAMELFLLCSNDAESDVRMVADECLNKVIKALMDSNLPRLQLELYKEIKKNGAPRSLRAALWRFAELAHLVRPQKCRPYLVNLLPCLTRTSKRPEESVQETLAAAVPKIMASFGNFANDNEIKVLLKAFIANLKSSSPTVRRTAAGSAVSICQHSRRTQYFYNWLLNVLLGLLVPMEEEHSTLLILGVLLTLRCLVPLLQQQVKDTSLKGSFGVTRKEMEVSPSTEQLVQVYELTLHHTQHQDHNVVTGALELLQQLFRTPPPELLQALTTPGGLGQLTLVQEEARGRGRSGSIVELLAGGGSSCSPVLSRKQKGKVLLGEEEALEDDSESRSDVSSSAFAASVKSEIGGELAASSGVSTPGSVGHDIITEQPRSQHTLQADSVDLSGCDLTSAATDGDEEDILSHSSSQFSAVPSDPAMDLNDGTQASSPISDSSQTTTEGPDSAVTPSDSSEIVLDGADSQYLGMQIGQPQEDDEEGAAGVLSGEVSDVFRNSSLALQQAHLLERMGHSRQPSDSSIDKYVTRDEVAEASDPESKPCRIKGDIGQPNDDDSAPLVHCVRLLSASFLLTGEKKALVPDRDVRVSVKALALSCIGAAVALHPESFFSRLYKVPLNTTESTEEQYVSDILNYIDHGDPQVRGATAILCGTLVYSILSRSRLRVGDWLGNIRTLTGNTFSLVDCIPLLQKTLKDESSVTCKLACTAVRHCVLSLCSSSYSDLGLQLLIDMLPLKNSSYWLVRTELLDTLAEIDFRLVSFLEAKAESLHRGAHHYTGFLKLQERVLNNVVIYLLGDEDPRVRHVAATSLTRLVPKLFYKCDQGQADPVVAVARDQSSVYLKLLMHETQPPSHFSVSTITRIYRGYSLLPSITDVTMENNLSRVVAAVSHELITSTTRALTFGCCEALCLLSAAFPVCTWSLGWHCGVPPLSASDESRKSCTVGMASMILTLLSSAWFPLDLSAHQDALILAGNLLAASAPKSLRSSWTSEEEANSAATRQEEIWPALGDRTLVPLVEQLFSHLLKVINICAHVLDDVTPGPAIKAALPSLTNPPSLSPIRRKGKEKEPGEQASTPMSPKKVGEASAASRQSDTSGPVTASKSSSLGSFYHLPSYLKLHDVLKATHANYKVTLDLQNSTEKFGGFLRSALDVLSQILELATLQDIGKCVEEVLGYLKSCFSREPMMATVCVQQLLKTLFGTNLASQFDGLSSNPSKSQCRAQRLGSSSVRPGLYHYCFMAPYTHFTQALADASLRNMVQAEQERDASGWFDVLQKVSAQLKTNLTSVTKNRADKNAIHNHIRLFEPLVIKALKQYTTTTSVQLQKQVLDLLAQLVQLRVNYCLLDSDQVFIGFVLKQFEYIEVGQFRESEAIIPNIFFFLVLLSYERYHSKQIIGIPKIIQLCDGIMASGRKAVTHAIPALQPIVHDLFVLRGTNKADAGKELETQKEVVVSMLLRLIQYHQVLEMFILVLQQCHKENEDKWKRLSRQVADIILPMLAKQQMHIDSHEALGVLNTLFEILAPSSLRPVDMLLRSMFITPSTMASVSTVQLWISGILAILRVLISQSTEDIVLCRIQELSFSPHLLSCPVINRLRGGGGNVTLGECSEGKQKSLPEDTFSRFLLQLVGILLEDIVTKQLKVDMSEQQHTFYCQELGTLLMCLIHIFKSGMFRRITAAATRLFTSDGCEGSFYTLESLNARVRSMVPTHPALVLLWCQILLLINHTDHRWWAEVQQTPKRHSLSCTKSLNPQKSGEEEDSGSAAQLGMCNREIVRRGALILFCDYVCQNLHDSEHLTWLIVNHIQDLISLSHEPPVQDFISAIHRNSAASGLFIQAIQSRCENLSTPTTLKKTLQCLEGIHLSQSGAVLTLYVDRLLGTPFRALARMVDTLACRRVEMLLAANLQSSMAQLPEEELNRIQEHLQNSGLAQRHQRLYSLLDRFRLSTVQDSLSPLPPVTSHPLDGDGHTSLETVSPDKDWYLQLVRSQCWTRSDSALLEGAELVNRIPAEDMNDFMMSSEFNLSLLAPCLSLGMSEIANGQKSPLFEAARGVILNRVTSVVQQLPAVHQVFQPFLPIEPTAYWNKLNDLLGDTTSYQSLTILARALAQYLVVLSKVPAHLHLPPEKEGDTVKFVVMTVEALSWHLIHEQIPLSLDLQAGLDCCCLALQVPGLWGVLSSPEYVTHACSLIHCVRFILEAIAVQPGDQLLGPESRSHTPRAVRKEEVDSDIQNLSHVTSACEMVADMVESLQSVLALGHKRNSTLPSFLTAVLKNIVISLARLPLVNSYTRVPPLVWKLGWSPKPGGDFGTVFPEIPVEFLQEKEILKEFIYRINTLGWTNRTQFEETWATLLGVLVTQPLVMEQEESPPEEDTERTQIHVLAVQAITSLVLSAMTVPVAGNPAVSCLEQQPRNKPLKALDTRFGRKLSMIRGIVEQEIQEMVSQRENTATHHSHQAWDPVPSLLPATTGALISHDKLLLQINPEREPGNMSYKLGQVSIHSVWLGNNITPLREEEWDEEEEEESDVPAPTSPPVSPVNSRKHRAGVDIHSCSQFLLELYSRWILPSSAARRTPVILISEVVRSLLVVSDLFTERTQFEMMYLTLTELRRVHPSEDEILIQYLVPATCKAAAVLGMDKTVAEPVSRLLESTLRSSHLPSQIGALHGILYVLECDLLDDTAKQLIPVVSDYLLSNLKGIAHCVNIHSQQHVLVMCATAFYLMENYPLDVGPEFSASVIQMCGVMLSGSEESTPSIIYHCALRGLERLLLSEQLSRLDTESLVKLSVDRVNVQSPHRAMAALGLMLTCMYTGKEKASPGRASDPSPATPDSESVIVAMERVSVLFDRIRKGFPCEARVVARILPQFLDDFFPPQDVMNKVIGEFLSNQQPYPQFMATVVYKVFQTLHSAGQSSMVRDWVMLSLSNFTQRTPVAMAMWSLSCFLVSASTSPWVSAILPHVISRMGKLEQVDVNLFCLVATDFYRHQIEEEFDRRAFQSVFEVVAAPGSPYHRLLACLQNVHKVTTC

Tests used:
mHTT = molecular target: T1, mHTT (Homo sapiens, UniProt P42858, INS38QQQQQQQQQQQQQQQQQQQQQQQQQQ); assay: HTRF of mHTT in HD patient iPSC-derived neurons (Q47); type: cell-based; settings: HTRF 2B7/MW1, method similar to 5.1
T1 construct: endogenous in cells; host or cells: HD patient iPSC-derived neurons (Q47)

[1] = molecular target: T2, human HTT full-length protein (Q128) (Homo sapiens, UniProt P42858); assay: mHTT level in heads of Huntington's disease Drosophilae (HTRF); type: in vivo, Drosophila; settings: food with 10 μM in 400 μL DMSO, 6 days, head protein, HTRF 2B7/MW1
T2 construct: transgenic Drosophilae expressing human HTT full-length protein (Q128); tissue Bloomington Drosophila Stock Center (fly lines); host or cells: heads of elav-GAL4 x UAS-fl-HTT-Q128 Drosophila
Procedure: Nervous system driver line elav-GAL4 (c155), HTT expressing lines UAS-fl-HTT-Q16 and UAS-fl-HTT-Q128 were from Bloomington Drosophila Stock Center (http://flystocks.bio.indiana.edu/) and kept in a 25° C. incubator.
Crosses were set up between virgin female Drosophilae carrying elav-GAL4 driver and the UAS-fl-HTT-Q16 or UAS-fl-HTT-Q128 male Drosophilae to generate a transgenic Drosophilae driven by elav-GAL4 to express human HTT full-length protein (Q16) or (Q128) in the nervous system.
[…]. The negative control group was given the corresponding solvent DMSO, and the positive drug groups was given the corresponding positive drug.
Drosophilae were kept in standard food at 25° C. The newly hatched Drosophilae were transferred to vials with food containing the positive drug (10 μM in 400 μL DMSO) or DMSO for control. The corn food was changed every other day.
After fed for 6 consecutive days, the Drosophila head protein was extracted on the 7th day. The mHTT level was measured by HTRF (antibody pair: 2B7/MW1), where each sample included head proteins from five Drosophila (FIG. 14). […]

wtHTT = wtHTT (Mus musculus, UniProt P42859); settings: Hdh^Q140/Q7 mouse cortical neurons, treated 2 days, Western-blots (antibody 2166)

O=c1cc(-c2ccccc2)c2c(O)cc(O)cc2o1 [compound 2]
mHTT levels in HD patient iPSC-derived neurons (mHTT): Decreased mHTT levels
mHTT levels in transgenic Drosophilae [1]: reduced
level of wtHTT in cortical neurons (wtHTT): hardly affected
